Earlier results, collected in patent US8450097B2, “Protein-proteophore complexes” (Ascendis Pharma GmbH, priority 2003, dated 2013).

Details: rats; for half-life t½ in circulation: PEGylated interferons

With “dipegylated with 2×20 kDa PEG: PEGylated interferon alfa-2a, dipegylated with 2×20 kDa PEG” as the substance, how does the “half-life t½ in circulation” value read?
Its value is 23 h.

With interferon alfa-2a as the substance, how does the “time within which cleared” value (unconjugated protein) read?
Its value is no more than 2.5 h.

For “linear 5 kDa PEG monoconjugate: PEGylated interferon alfa-2a, linear 5 kDa PEG monoconjugate”, which “half-life t½ in circulation” value is on record?
Its value is 3.4 h.
